Biological target: Cathepsin L (Homo sapiens, UniProt P07711)
Assay: Preincubation-dilution reversibility experiment
Format: biochemical

Amino acid sequences for entries named in this document (tags omitted). Residues count along the entry.
UniProt P07711, 114-333: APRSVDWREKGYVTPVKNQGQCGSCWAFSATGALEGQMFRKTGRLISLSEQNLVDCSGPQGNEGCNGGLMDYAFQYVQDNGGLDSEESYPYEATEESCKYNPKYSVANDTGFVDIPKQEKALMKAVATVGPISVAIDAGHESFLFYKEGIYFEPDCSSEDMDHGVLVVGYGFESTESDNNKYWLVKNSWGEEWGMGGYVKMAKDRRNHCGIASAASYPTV

Row | Compound | catalytic activity upon dilution | mode of inhibition | reduction of enzymatic reaction rate / product formation after dilution
1 | CC(C)CCNC(=O)[C@H](CC(C)C)NC(=O)[C@H]1O[C@@H]1C(=O)O [E-64c, reference compound] | matched the response of natural product 1 | – | –
2 | CC[C@H](C)[C@@H](C(=O)O[C@@H](CC(C)C)C(=O)N[C@@H](CC(C)C)C(=O)N[C@@H](C)/C=C/C(=O)N1C(=O)C=C(OC)[C@@H]1C)N(C)C [compound 1, Gallinamide A] | approximately 5% | irreversible | 95%
3 | CC[C@H](C)[C@@H](C(=O)O[C@@H](CC(C)C)C(=O)N[C@@H](CC(C)C)C(=O)N[C@@H](C)CCC(=O)N1C(=O)C=C(OC)[C@@H]1C)N(C)C [compound 17, (S)-1-(((S)-1-(((S)-5-((S)-3-Methoxy-2-methyl-5-oxo-2,5-dihydro-1H-pyrrol-1-yl)-5-oxopentan-2-yl)amino)-4-methyl-1-oxopentan-2-yl)amino)-4-methyl-1-oxopentan-2-yl dimethyl-L-isoleucinate] | – | – | 25%

— paper PMC7240701 (Journal of medicinal chemistry, 2019)
